Measured values as given in patent publication US10160747B2, “Compounds and methods for kinase modulation, and indications therefor” (Plexxikon Inc., priority 2016, dated 2018).

The chains behind the UniProt entries cited, without tags or fusion partners. A line that says so, or that is headed by a name, gives the form on record, which may keep a tag or linker.
UniProt P36888, with tags, fused parts or gaps with the stated changes: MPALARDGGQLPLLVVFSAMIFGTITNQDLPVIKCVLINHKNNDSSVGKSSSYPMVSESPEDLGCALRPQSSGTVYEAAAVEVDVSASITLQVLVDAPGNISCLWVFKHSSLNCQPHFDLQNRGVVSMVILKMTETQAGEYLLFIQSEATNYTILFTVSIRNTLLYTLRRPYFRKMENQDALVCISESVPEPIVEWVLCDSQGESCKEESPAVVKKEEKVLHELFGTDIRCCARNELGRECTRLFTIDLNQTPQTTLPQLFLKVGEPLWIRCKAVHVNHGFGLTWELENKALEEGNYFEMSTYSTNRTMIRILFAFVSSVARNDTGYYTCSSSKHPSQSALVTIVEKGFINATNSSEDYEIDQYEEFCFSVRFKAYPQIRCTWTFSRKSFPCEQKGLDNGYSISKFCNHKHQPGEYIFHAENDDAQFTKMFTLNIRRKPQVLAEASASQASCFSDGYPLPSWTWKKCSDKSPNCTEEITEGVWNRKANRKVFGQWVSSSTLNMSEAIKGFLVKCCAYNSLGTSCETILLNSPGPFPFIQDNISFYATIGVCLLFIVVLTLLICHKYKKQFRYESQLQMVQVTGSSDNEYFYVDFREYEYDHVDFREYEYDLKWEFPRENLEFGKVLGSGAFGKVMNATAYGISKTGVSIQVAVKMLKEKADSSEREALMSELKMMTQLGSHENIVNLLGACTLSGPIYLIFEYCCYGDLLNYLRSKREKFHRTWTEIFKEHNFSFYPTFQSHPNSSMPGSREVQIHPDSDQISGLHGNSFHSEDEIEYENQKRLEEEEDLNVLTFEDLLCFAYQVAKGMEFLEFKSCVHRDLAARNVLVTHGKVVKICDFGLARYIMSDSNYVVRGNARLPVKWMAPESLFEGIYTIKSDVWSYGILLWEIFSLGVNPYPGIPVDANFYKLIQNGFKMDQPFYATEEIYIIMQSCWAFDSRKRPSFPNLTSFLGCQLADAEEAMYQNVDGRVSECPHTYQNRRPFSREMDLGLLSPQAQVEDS

Experiments:
BA/F3-FLT3-ITD + D835Y = BA/F3-FLT3-ITD + D835Y (Homo sapiens, UniProt P36888, D835Y, cells depend on it, form not given); experiment: Engineered BA/F3 cell growth assay, FLT3 ITD/D835Y; details: read-out: BaF3_FLT3 ITD/D835Y 3 d-Growth: IC50
From the text: (§1) The FLT3 inhibitors may be assessed using the MOLM-14, Acute Myeloid Leukemia cell line that endogenously expresses FLT3 ITD or derivatives of the human FLT3 AML cell line which acquired the D835Y (activation loop) of F691L (gatekeeper) mutation after selection in escalating doses of the FLT3 Inhibitor AC220. FLT3 inhibitors may also be assessed using cells that are engineered to express mutant FLT3. For engineered cells, murine Ba/F3 cells were transfected with full-length FLT3 ITD/D835Y mutations. The parental BA/F3 cells are dependent upon Interleukin-3 (IL-3) for survival, and introduction of the FLT3 constructs rendered these cells dependent upon FLT3 kinase activity when cultured in the absences of IL-3. […] This inhibition is measured as a function of compound concentration to assess IC50 values. […]
Cells were seeded at 1×10^4 cells per well of a 96 well cell culture plate in 50 μl of cell culture medium. […] The plates were read on a Tecan M1000 using Luminescence protocol modified to read 0.1 s per well. The luminescence reading assesses the ATP content, which correlates directly with cell number such that the reading as a function of compound concentration was used to determine the IC50 value. […]

[1] = tested on: MOLM-14 D835Y (endogenous FLT3 ITD and transfected FLT3 D835Y); experiment: MOLM-14 D835Y cell proliferation assay (CellTiter-Glo); details: read-out: MOLM-14 D835Y 3 d-Growth GMean IC50
From the text: as §1
(§2) Cells were seeded at 1×10^4 cells per well of a 96 well cell culture plate in 50 μl of cell culture medium. […] The plates were read on a Tecan M1000 using Luminescence protocol modified to read 0.1 s per well. The luminescence reading assesses the ATP content, which correlates directly with cell number such that the reading as a function of compound concentration was used to determine the IC50 value.

[2] = tested on: MOLM-14 F691L (endogenous FLT3 ITD and transfected FLT3 F691L); experiment: MOLM-14 F691L cell proliferation assay (CellTiter-Glo); details: read-out: MOLM-14 F691L 3 d-Growth GMean IC50
From the text: as §1, §2

Cn1cc(Nc2ncc(-c3ccc(CC(=O)NCc4cc(Cl)ccc4Cl)cc3)cn2)cn1
0.0001 to 10 µM: GI50 (BA/F3-FLT3-ITD + D835Y) | IC50 [1] | IC50 [2]
